The values that follow are results of earlier work, collected in US8642784B2, “Biologically active compound N-[3-(4-nitrophenylamino)-indole-2-ilmethylene]aminoguanidine hydrochloride with anti-inflammatory activity” (priority 2010, dated 2014).

The target of the data set is inducible isoenzymes of NO-synthase (Homo sapiens, UniProt P35228). Conditions: most in vitro systems; cited from earlier work.

Consider `CNC(=N)NCCC[C@H](N)C(=O)O` [L-NMMA, NG-monomethyl-L-arginine], for which the “Inhibition of inducible isoenzymes of NO-synthase” value is given as “equally effective in inhibiting inducible isoenzymes”.
